Data published in patent US20220168427A1 (Ranok Therapeutics (Hangzhou) Co. Ltd., priority 2019, published 2022).

System: SU-DHL-4 xenograft
Assay: SU-DHL-4 DLBCL tumor xenograft study in mice
Settings: 100 mg/kg oral dosing 1×/day
Protocol: Tumor Xenograft Studies in Mice
5×10^6 MV-4-11 or 1×10^7 SU-DHL-4 cells were collected and re-suspended in 0.1 mL of serum-free media with Matrigel (1:1 v/v) per mouse for subcutaneous inoculation in isoflurane anesthetized male BALB/c nude or C.B-17 scid mice, respectively (treated in accordance with AAALAC animal welfare guidelines). When the average tumor volumes reached 100-200 mm^3, tumor volume outliers were removed and the remaining animals randomly divided into groups of 6-8 with similar average tumor volumes in each group. […] Animals were intravenously dosed at 25 mg/kg, 50 mg/kg or 100 mg/kg 1×/week for 3 or 4 weeks. The appearance and behavior of each mouse was observed and recorded daily. Body weights and tumor volumes were measured and recorded every 2-4 days and the results were expressed as group means±SEM. Pairwise statistical comparisons between groups were performed by one-way ANOVA, and p<0.05 was considered statistically significant.

## Cc1sc2c(c1C)C(c1ccc(Cl)cc1)=N[C@@H](CC(=O)Nc1ccc(O)cc1)c1nnc(C)n1-2 [OTX-015, reference compound]
  T/C value: 45%
